Literature values in US7579350B2, “Scaffolds for α-helix mimicry” (The Scripps Research Institute, priority 2005, dated 2009).

Protein sequences, listed by entry. Tags and fused reporters are not part of them.
UniProt Q07817, whole entry, species assumed: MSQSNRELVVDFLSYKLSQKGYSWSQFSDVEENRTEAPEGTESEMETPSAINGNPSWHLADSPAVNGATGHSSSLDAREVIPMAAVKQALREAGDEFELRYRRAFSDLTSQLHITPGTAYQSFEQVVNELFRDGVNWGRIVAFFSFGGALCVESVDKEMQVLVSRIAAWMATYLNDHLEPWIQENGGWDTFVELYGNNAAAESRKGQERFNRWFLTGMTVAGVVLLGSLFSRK

Target: Bcl-xL (Homo sapiens, UniProt Q07817)
Conditions: Bak aa 72 to 87 bound to Bcl-xL; cited from earlier work

Substance: 16 residue BH3 domain peptide from Bak: 16 residue BH3 domain peptide from Bak (aa 72 to 87) that binds Bcl-xL in a helical conformation
- Kd: ~300 nM
